Test results from patent US20080089860A1, “Therapeutic compositions and methods useful in treating cancer” (priority 2006, published 2008).

Key:
advanced RCC = details: human, in vivo; cited from earlier work
[1] = system: tumor-infiltrating and spleen macrophages (F4/80+), T and NK cells; experiment: Immunohistochemistry of Renca tumors and spleen, Balb/c mice; assay type: in vivo; details: Renca tumors
Description: Major internal organs and Renca tumors harvested from mice were fixed in 10% formalin or snap frozen in liquid nitrogen. H & E-stained tissue sections of the fixed samples were prepared and evaluated by microscopy as described previously (Yi, T., M. K. Pathak, D. J. Lindner, M. E. Ketterer, C. Farver, and E. C. Borden. 2002. Anticancer activity of sodium stibogluconate in synergy with IFNs. J Immunol 169:5978). Preparation of frozen tissue sections and immunohistochemistry were performed following established procedures (Joliat, M. J., P. A. Lang, B. L. Lyons, L. Burzenski, M. A. Lynes, T. Yi, J. P. Sundberg, and L. D.
Shultz. 2002. Absence of CD5 dramatically reduces progression of pulmonary inflammatory lesions in SHP-1 protein-tyrosine phosphatase-deficient ‘viable motheaten’ mice. J Autoimmun 18:105). The antibodies used for immunohistochemistry were anti-CD4 (rat mAb, clone GK1.5, BD Biosciences, Franklin Lakes, N.J.), anti-CD8 (rat mAb, clone 53-6.7.5, BD Biosciences, Franklin Lakes, N.J.), anti-F4/80 (rat mAb, clone A3-1, Serotec, Oxford, UK) and anti-Asialo GM1 (rabbit polyclonal, Cedarlane, Hornby, Canada). […] Tissue sections of 2 mice/group were evaluated. The number of immune cells was semi-quantified based on the following scheme: […], 0-1 positive cells/40×field; +, 2-5 positive cells/40×field; ++, 6-10 positive cells/40×field, etc.

Renca tumors = Renca tumors in Balb/c mice; assay type: in vivo; details: two weeks; SSG 12 mg daily i.m., IL-2 105 IU daily i.p.
Description: Balb/c and athymic nude Balb/c mice (10 weeks old, female, Taconic Farms, Germantown, N.Y.) were inoculated (s.c.) at the flanks with Renca cells (10^6 cells/site). Four days post-inoculation, the mice were subject to no treatment (Control) or treatment with IL-2 ([…]/daily for 5 days, i.p.), SSG (12 mg/daily, i.m. at hip regions) or the combination of the two agents for two weeks. […] The dose of SSG was similar to the effective daily dose of the drug for the treatment of murine leishmaniasis (Murray, H. W., J. D. Berman, and S. D. Wright. 1988. Immunochemotherapy for intracellular Leishmania donovani infection: gamma interferon plus pentavalent antimony. J Infect Dis 157:973). Tumor volume was measured during the study period and calculated using the formula for a prolate spheroid (V=4/3×a2b) (Lindner, D. J., E. C. Borden, and D. V. Kalvakolanu. 1997. Synergistic antitumor effects of a combination of interferons and retinoic acid on human tumor cells in vitro and in vivo. Clin Cancer Res 3:931). Student's t test was used for assessing the significance of tumor volume differences among differential treatment groups. Mouse viability (daily) and body weights (weekly) were also recorded during the study period. At the end of the study, Renca tumors and major internal organs (heart, kidney, liver, lung and spleen) were harvested for histology and immunohistochemistry analysis.

WM9 cells [2] = experiment: WM9 apoptosis, fluorescent microscopy; assay type: cell-based, human; details: control 5%
Description: (§1) Annexin V staining of exposed membrane phospholipid phosphatidylserine (PS) was done using the Annexin V assay kit (Pharmingen, San Diego, Calif.). Briefly, U266 or WM9 cells were cultured in the 10% FCS RPMI 1640 medium in the absence or presence of sodium stibogluconate, IFN-alpha or both for 3 days. Cells were then washed in PBS twice and stained in binding buffer (10 mM Hepes, pH 7.4; 140 mM NaCl; 2.5 mM CaCl2) containing Annexin V-FITC and propidium iodide for 15 min. The reaction was stopped by adding 10 volumes of binding buffer and analyzed by FACS (Becton Dickinson Facsvantage) or fluorescent microscopy.

MDA231 cells = experiment: MDA231 breast cancer cell growth, MTT assay; assay type: cell-based, human; details: the drug at 25 μg/ml and IFN-alpha, individually or combined
Description: (§2) For cell proliferation assays, cells were grown in 10% FCS culture medium containing various amounts of IFNs and/or sodium stibogluconate in 96 well plates and cultured at 37° C. for 3 or 6 days as indicated. The numbers of viable cells in proliferation assays were determined by MTT assays as described in Phatak et al., J. Immunol. 167, 3391 (2001).

DS cells = experiment: DS lymphoma cell growth, MTT assay; assay type: cell-based, human; details: day 3; IFN-alpha 1,000 u/ml
Description: as §2

TF-1 cells = experiment: TF-1 cell proliferation assay; assay type: cell-based, human; details: IFN-alpha with or without sodium stibogluconate 50 μg/ml
Description: The murine hematopoietic cell line Baf3 was maintained in RPMI 1640 medium supplemented with 10% fetal calf serum (FCS) and murine IL-3 (20 units/ml) as described previously in Damen et al., J. Biol. Chem. 270, 23402 (1995). Human myeloid cell line TF-1 was maintained in RPMI 1640 supplemented with 10% FCS and 40 ng/ml of recombinant human GM-CSF as described previously in Thomassen et al., Clin. Immunol. 95, 85 (2000). For cell proliferation assays, cells were washed in 10% FCS medium twice, resuspended in 10% FCS medium, incubated at 37° C. for 16 hours, and then cultured at 37° C. in 10% FCS medium containing various amounts of cytokines, sodium stibogluconate, or potassium antimonyl tartrate for 3-6 days as indicated. The cell numbers in proliferation assays were determined by an MTT assay or by microscopic cell counting as indicated.

DU145 xenografts = DU145 xenografts in nude mice, sodium stibogluconate and IFN-alpha; assay type: in vivo; details: day 25; sodium stibogluconate 12 mg Sb s.c. daily, IFN-alpha 500,000 U s.c. daily
Description: (§3) Nude mice bearing WM9 or DU145 xenografts were treated with IFN-alpha (500,000 U, s.c., daily), sodium stibogluconate (12 mg Sb, s.c., daily) or both. […] The dosage of sodium stibogluconate corresponds to approximately 440 mg Sb/kg body weight (average mouse body weight 27 g), substantially higher than the standard therapeutic dose of 20 mg Sb/kg and the high dose (143 mg Sb/kg) that was clinically used by accident without serious toxicity. This dose of sodium stibogluconate was based on a previous observation in a pilot study that mice could tolerate daily dose of 20 mg Sb (approximately 700-800 mg Sb/kg). […] In light of the relatively rapid rate of clearance of the drug in vivo, 440 mg Sb/kg dosage was used to ensure the detection of the effectiveness of the drug for this initial study.
(§4) For each of the cell lines, each of 16 mice received subcutaneous injection at the chest area of 3×10^6 cells/site (WM9) or 2×10^6 cells/site (DU145), two sites/mouse, on day 0. Mice were separated into four groups of four to receive treatment, injected into the thigh area starting on day 2. Tumor size was measured with a caliper to determine the two perpendicular diameters of each tumor. Tumor volume was calculated using the method of the NCI (length×width 2 in millimeters/2=volume in cubic millimeters).

[3] = system: DU145 human prostate carcinoma xenografts; experiment: DU145 xenografts (s.c.) in nude mice, SSG and SSG/IFNα2; assay type: in vivo
Source text: Sodium stibogluconate (SSG) eradicated WM9 human melanoma xenografts in mice in synergy with IFNα2 and is currently in Phase I clinical trial. SSG was also found to inhibit murine Renca tumor growth via an immune mechanism independent of direct growth inhibition. […] Histologic evaluation of the inoculation sites identified multiple micro tumors in mice treated with SSG (˜4/site) or SSG/IFN[…]2 (˜2/site) in contrast to the single large tumors in the control or IFNα2-treated mice. […] Consistent with the pre-existence of an SSG-resistant subpopulation, DU145 cells but not WM9 cells cultured in the presence of SSG formed colonies with ˜4% frequency.

DR cells = experiment: DR lymphoma cell growth, MTT assay; assay type: cell-based, human
Description: as §2

[4] = Toxicity in nude mice (viability, body weight); assay type: in vivo; details: day 25
Description: as §3
As discussed above, the dosage of sodium stibogluconate used for the treatment of nude mice was 12 mg Sb/mouse, s.c., daily (or approximately 440 mg/kg body weight). This dosage is much higher than the standard dose for leishmaniasis (20 mg Sb/kg, daily). As an initial step to assess the toxicity of such a high dosage of sodium stibogluconate in nude mice, the effect of sodium stibogluconate on the viability and body weights of WM9 xenografts nude mice during the 25 day period of the study was determined.

U266 cells = experiment: U266 apoptosis, Annexin V/propidium iodide; assay type: cell-based, human; details: 3 days; sodium stibogluconate 100 μg/ml, IFN-alpha 1000 units/ml; untreated 8%
Description: as §1

WM9 xenografts = experiment: WM9 melanoma xenografts in nude mice; assay type: in vivo; details: day 25; sodium stibogluconate 12 mg Sb s.c. daily, IFN-alpha 500,000 U s.c. daily
Description: Nude mice bearing WM9 or DU145 xenografts were treated with IFN-alpha (500,000 U, s.c., daily), sodium stibogluconate (12 mg Sb, s.c., daily) or both. […] The dosage of sodium stibogluconate corresponds to approximately 440 mg Sb/kg body weight (average mouse body weight 27 g), substantially higher than the standard therapeutic dose of 20 mg Sb/kg and the high dose (143 mg Sb/kg) that was clinically used by accident without serious toxicity. This dose of sodium stibogluconate was based on a previous observation in a pilot study that mice could tolerate daily dose of 20 mg Sb (approximately 700-800 mg Sb/kg). […]
as §4, with “Mice were separated into four groups of four to receive treatment, injected into the thigh area starting on day 2.” left out
To test the anti-tumor effects of sodium stibogluconate and its synergy with IFN-alpha in vivo, the effect of sodium stibogluconate, IFN-alpha and their combination against xenografts of human WM9 melanoma in nude mice was determined. […] Tumor volume of WM9 xenografts in the mice was determined during the treatment course as indicators of efficacy of the treatment (FIG. 22A).

WM9 cells [5] = experiment: WM9 melanoma cell growth, MTT assay; assay type: cell-based, human; details: the drug at 25-100 μg/ml and IFN-alpha, individually or in combination
Description: as §2
Dose response curves were generated for each drug alone, and also the combinations. Median effect plots were generated for IFNs alone, sodium stibogluconate alone, and the combination. The combination index (CI) was determined and plotted vs. fraction affected (FA). Data were analyzed in both modes, mutually exclusive and mutually nonexclusive. The interaction between two mutually nonexclusive drugs is described by the Equation CI=D1/Dx1+D2/Dx2+D1D2/Dx1Dx2, where Dx1 and Dx2 are the doses of drug 1 and drug 2 that are required to inhibit growth x %. […] When CI<1, drugs are synergistic, when CI=1, drugs are additive, and when CI>1, drugs are antagonistic. […]

| Substance | response rates in advanced RCC patients (advanced RCC) | increase of tumor-infiltrating Mφ (F4/80+) [1] | Renca tumor growth inhibition (Renca tumors) | apoptotic WM9 cells (WM9 cells [2]) [%] | growth inhibition of MDA231 breast cancer cells (MDA231 cells) [%] | activity against DS cells (DS cells) | GM-CSF-induced proliferation of TF-1 cells (TF-1 cells) | DU145 average tumor volume relative to control (DU145 xenografts) | DU145 tumor growth inhibition [3] [%] | growth inhibition of DR cells (DR cells; day 3, IFN-alpha alone or with various amounts of sodium stibogluconate) [%] | growth inhibition of DR cells (DR cells; day 6, IFN-alpha alone) [%] | survival of WM9-inoculated nude mice [4] | percentage of apoptotic U266 cells (U266 cells) [%] | WM9 tumor volume relative to control group (WM9 xenografts) | growth inhibition of WM-9 melanoma cells (WM9 cells [5]) [%] |
| --- | --- | --- | --- | --- | --- | --- | --- | --- | --- | --- | --- | --- | --- | --- | --- |
| IL-2: recombinant IL-2 (Proleukin, Chiron) | 10-20% | comparable levels | failed to inhibit | – | – | – | – | – | – | – | – | – | – | – | – |
| IFN-alpha: recombinant human IFN-alpha (IFN-alpha-2b, Schering Plough) | – | – | – | 15 | 79 | almost completely eliminated | suppressed | approximately 70 % of control | 33 | 19 | 39 | survived until the end of the study | 16 | approximately 40 % of control | 58 |
